Data reported in US6887202B2, “Systems and methods for monitoring health and delivering drugs transdermally” (Science Applications International Corporation, priority 2000, dated 2005).

Amino acid sequences for entries named in this document (tags omitted). Residues count along the entry.
UniProt P04757, 26-499: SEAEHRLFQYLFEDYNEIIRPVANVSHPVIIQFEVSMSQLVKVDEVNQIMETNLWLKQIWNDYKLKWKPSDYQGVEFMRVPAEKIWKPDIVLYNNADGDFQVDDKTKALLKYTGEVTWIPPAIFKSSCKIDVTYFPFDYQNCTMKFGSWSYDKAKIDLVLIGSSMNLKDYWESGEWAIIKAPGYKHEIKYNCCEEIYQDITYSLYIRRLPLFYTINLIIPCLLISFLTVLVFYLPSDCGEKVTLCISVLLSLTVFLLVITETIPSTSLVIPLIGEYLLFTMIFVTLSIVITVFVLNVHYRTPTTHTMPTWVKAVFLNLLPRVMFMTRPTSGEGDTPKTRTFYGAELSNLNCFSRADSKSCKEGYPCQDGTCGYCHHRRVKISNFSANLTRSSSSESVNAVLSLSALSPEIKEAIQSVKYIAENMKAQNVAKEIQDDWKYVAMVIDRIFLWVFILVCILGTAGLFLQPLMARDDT
UniProt P12392, 21-495: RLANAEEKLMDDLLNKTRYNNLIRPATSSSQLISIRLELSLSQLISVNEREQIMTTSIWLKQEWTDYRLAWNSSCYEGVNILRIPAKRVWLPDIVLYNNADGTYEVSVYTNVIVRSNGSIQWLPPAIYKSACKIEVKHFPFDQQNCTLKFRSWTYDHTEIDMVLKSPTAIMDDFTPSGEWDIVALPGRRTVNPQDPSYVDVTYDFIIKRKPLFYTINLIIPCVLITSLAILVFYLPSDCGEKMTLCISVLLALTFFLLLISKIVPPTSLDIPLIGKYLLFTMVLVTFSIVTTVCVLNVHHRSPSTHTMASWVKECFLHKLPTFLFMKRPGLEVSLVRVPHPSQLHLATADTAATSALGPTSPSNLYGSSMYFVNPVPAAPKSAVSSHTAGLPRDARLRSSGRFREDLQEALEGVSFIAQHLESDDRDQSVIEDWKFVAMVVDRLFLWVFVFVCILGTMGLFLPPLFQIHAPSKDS

Target: T1, α3/β4 nAChR (Rattus norvegicus, UniProt P04757+P12392)
T1 construct: expressed in transfected cells
Assay: Frontal chromatography with α3/β4 nAChR-IAM stationary phase ([3H]-EB marker)
Format: binding
Experimental: Rat whole forebrain or transfected cells are suspended in 50 mM Tris-HCI, pH 7.4, (buffer A), homogenized for 30 seconds with Brinkmann Polytron, and centrifuged at 40,000×g for 10 min at 4° C. The pellet is resuspended in 6 ml of 2% deoxycholate or 2% cholate in buffer A and stirred for 2 hours. The mixture is centrifuged at 35,000×g for 30 minutes, and the supernatant containing nAChR-deoxycholate solution is collected.
Dried IAM particles are suspended in 4 ml of the obtained detergent solutions containing nAChR subunits or subtypes. For the immobilization of one nAChR subtype, the mixture of IAM-detergent-receptor is stirred for 1 hour at room temperature. The suspension is dialyzed against 2×1 L buffer A for 24 hours at 4° C. The IAM LC support with immobilized nAChRs is then washed with buffer A, centrifuged and the solid collected.
Chromatography based on nAChR-LAMcolumn or nAChR-liposome-Superdex 200 column: The nAChR-IAM particles or nAChR-Superdex gel beads are packed in a HR5/2 glass column and connected to a HPLC pump. […] All chromatographic experiments are performed at flow rate 0.4 ml/min at room temperature.
The chromatographic data is summed up in 1-min intervals and smoothed using the Microsoft Excel program with a 10 point moving average.

SMILES | retention volume of [3H]-EB (60 pM [3H]-EB) [mL] | retention volume of [3H]-EB (450 pM [3H]-EB) [mL] | retention volume for 60 pM [3H]-EB (column stability) (day 1 to day 10 of continuous use) [ml] | retention volume for 60 pM [3H]-EB (column stability) (day 50, after 40 days storage at 4° C.) [ml] | mobile phase concentration required to decrease the retention volume of 60 pM [3H]-EB from 9.5 ml to 6 ml (α3/β4 nAChR column (0.5×1.25 cm)) [nM]
Clc1ccc(C2CC3CCC2N3)cn1 (centres unmarked) [[^3H]-EB, [^3H]-epibatidine] | 23 | 8 | 9.5±0.05 | 9.7±0.08 | 
Clc1ccc(C2CC3CCC2N3)cn1 (racemic) [(±)-Epibatidine] |  |  |  |  | 0.12
